The experiment concerns TFG-MET allograft tumors. Nature of the experiment: TFG-MET allograft preclinical trial in CD1 mice, Survival cohort (survival, BLI, body weight). It is filed as in vivo, mouse. The note with it: Murine allografts.

For the compound `C[C@@H](Oc1cc(-c2cnn(C3CCNCC3)c2)cnc1N)c1c(Cl)ccc(F)c1Cl` [Crizotinib], the “BLI signal, individual mice” value reads like this: (day 28, drug + RT) 1.20E+05; (day 49, drug + RT) 1.10E+05; (day 63, drug + RT) 1.20E+05; (day 77, drug alone) 1.12E+05; (day 84, drug alone) 1.19E+05; (day 91, drug + RT) 1.13E+05.

These data come from paper PMC11157767 (Molecular Cancer, 2024).
